Biological target: 5-hydroxytryptamine receptor 2A (Rattus norvegicus, UniProt P14842)

By UniProt entry, the sequences of proteins in these tests, tags left out.
UniProt P14842, whole entry: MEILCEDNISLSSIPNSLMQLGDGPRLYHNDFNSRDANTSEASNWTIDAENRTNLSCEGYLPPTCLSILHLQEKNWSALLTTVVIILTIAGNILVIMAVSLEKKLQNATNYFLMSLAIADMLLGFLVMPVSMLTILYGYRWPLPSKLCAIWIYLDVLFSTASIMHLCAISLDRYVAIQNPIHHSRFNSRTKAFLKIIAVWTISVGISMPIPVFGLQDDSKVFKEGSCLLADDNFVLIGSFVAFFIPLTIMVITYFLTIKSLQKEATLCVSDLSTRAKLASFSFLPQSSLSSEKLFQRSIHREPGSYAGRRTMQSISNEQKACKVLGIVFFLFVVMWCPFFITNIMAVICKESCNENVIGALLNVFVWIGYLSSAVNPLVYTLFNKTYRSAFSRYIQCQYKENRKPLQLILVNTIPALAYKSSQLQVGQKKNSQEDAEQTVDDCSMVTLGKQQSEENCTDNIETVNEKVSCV

Cc1cc2c(s1)=Nc1ccccc1NC=2N1CCN(C)CC1 [CAS_132539-06-1]
Ki: 5.4 nM

Source: BindingDB's records for doi:10.1007/bf02311185 (Case Western Reserve University, 1995)
